In US11325952B2, “Light-gated signaling modulation” (Korea University Research and Business Foundation, priority 2016, dated 2022):

Target: dopamine 2 receptor (DRD2) (Rattus norvegicus, UniProt P61169)

CCCN1CCC[C@@H]2Cc3n[nH]cc3C[C@H]21 [quinpirole]
gene expression upon DRD2 agonist: dose-dependent manner
